In ChEMBL document CHEMBL1131777, “Analogs of 4-(3-bromo-8-methyl-10-methoxy-6,11-dihydro-5H-benzo[5,6]-cyclo hepta[1,2-b]pyridin-11-yl)-1-(4-pyridinylacetyl)piperidine N-oxide as inhibitors of farnesyl protein transferase” (Bioorg Med Chem Lett, 1999):

Target: Protein farnesyltransferase (Homo sapiens, UniProt P49354+P49356)
Assay: In vitro inhibition of human Farnesyltransferase
Type: protein-complex assay

## NC(=O)N1CCC(CC(=O)N2CCC([C@H]3c4ncc(Br)cc4CCc4cc(Cl)cc(Br)c43)CC2)CC1 [LONAFARNIB]
  IC50: 1900 nM
